{"sequences": {"note": "Protein sequences, listed by entry. Tags and fused reporters are not part of them. Lines headed by an entry give the natural chain unless they say otherwise; changes in a name come on top.", "UniProt Q15788": "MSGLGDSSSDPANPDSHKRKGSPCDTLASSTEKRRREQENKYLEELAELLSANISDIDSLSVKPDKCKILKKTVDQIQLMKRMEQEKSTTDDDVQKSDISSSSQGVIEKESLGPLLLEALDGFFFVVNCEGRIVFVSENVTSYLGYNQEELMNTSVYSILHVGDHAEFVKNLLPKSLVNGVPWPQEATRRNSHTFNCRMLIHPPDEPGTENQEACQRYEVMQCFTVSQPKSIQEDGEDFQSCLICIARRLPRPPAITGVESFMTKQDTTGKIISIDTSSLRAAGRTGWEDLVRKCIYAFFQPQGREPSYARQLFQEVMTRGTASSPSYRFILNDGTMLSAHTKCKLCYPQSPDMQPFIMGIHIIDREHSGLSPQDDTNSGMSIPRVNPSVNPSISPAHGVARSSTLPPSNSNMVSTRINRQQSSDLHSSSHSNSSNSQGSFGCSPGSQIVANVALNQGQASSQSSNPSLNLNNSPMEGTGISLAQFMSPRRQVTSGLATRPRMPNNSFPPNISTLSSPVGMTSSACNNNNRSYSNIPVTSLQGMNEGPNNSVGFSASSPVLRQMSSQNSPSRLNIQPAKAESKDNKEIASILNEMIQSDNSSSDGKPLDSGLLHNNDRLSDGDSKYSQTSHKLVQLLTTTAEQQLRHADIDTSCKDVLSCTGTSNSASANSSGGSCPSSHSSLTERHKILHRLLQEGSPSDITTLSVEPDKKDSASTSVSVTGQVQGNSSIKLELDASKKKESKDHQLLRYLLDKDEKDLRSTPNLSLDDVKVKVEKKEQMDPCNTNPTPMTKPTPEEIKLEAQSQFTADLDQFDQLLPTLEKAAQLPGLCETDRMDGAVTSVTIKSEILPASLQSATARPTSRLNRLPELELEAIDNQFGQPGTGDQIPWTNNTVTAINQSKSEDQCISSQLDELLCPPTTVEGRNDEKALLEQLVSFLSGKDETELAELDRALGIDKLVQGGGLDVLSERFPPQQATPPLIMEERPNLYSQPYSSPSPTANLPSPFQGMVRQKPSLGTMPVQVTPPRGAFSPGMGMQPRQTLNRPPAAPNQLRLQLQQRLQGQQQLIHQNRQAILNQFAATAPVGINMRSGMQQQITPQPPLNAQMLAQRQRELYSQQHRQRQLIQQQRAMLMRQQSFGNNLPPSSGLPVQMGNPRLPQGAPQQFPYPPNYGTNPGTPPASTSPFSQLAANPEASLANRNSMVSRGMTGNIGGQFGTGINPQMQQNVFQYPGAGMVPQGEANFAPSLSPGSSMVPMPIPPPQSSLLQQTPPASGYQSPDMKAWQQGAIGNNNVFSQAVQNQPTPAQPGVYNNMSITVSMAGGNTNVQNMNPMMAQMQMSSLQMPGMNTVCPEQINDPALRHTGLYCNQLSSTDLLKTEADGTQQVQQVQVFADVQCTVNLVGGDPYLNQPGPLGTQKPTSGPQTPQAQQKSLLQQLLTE"}, "source": "PubChem BioAssay AID651796", "about": "(The Scripps Research Institute Molecular Screening Center, 2012)", "biological_target": "Nuclear receptor coactivator 1 (Homo sapiens) (UniProt Q15788)", "test": "NCOA1-driven reporter transcription inhibition – cell-based, luminescence, late-stage follow-up (AID 651796)", "settings": "cell-based SRC1 reporter", "note": "Calls of active or inactive are those of the source. No rule for the calls is given here."}
{"molecule": "COc1cc([C@@H]2c3cc4c(cc3C(OC3OC5COC(C)OC5C(O)C3O)C3COC(=O)[C@@H]32)OCO4)cc(OC)c1O", "note": "(stereo partly specified)", "values": [{"measurement": "IC50", "value": "inactive"}]}
